Source: ChEMBL document CHEMBL3286287, “Identification of a new selective dopamine D4 receptor ligand” (Bioorg Med Chem, 2014)

Sequences of proteins named here, by UniProt entry; tags and fusion partners are left off.
UniProt P21728, whole entry: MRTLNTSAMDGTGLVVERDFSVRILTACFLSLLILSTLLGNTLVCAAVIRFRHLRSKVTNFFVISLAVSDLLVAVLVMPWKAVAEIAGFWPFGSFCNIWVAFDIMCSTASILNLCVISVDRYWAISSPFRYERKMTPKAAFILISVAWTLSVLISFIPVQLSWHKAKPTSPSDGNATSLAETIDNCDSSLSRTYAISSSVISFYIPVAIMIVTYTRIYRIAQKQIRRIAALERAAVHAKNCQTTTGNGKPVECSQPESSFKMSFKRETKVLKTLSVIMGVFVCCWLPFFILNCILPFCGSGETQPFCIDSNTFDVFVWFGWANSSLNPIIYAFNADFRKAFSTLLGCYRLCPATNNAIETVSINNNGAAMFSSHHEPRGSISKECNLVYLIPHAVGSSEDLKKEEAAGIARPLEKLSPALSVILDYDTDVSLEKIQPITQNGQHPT
UniProt P21918, whole entry: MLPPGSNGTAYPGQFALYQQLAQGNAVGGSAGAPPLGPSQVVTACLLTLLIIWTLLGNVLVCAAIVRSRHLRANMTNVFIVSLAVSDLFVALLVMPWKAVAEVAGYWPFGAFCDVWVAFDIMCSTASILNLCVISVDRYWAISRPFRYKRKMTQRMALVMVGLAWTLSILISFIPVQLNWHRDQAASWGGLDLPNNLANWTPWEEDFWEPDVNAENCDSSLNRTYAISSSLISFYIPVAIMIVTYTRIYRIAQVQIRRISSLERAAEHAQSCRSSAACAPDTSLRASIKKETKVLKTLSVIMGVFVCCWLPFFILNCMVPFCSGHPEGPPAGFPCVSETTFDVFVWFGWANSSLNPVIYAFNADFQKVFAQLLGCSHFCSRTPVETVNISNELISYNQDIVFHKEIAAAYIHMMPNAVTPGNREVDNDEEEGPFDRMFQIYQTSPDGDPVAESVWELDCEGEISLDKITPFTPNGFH

Columns and labels:
[1] = target: D(1A) dopamine receptor (Homo sapiens, UniProt P21728); assay: Displacement of [3H]SCH23390 from human dopamine D1 receptor by PDSP assay
[2] = target: D(1B) dopamine receptor (Homo sapiens, UniProt P21918); assay: Displacement of [3H]SCH23390 from human dopamine D5 receptor by PDSP assay

SMILES	Ki [1]	Ki [2]
Fc1ccc(OCCCN2CCN(c3ccccn3)CC2)cc1	0.18 µM	2.39 µM
Fc1ccc(CCCCN2CCN(c3ccccn3)CC2)cc1	0.238 µM	–
